Test results reported in patent US9849185B2, “Benzoic acid, benzoic acid derivatives and heteroaryl carboxylic acid conjugates of hydromorphone, prodrugs, methods of making and use thereof” (priority 2011, dated 2017).
Structures can show the parent of a compound that is named as a salt.

The chains behind the UniProt entries cited, without tags or fusion partners.
UniProt P35372, whole entry: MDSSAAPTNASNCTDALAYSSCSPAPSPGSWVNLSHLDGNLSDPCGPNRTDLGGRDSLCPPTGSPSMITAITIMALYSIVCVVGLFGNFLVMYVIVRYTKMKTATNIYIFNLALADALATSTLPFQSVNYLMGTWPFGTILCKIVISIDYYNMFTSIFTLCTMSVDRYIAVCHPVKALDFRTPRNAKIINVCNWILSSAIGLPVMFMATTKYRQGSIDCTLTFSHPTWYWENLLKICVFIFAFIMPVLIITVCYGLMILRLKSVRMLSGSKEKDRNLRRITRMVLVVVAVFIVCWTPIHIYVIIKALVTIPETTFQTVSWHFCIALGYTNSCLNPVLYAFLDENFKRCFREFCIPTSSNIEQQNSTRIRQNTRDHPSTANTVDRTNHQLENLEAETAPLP

How the values were obtained:
[1] = molecular target: enteric μ-opioid receptors (Homo sapiens, UniProt P35372)
[2] = rat, escalating dosages

Compound | affinity to the enteric μ-opioid receptors [1] | exposure (AUC) to hydromorphone when dosed above the therapeutic level ([2]; oral solutions, result in words) | dosages that caused death of the test animals ([2]; oral)
CC(=O)Oc1ccccc1C(=O)OC1=CC[C@H]2[C@H]3Cc4ccc(OC(=O)c5ccccc5OC(C)=O)c5c4[C@@]2(CCN3C)[C@H]1O5 [3,6-di-Aspirin-HM, 3,6-di-aspirin-hydromorphone] | insignificant affinity | reached a plateau | –
CN1CCC23c4c5ccc(O)c4OC2C(=O)CCC3C1C5 (stereo not drawn) [hydromorphone hydrochloride, 4,5-α-epoxy-3-hydroxy-17-methylmorphinan-6-one, reference compound] | – | – | above 14 mg/kg
